Test results reported in EP3442594B1, “BLOCK COPOLYMER FOR […] RESISTANCE OF TUMOURS TO CHEMOTHERAPY, ITS POLYMER-DRUG CONJUGATE, PHARMACEUTICAL COMPOSITION CONTAINING THEM, METHOD OF PREPARATION AND USE THEREOF” (Ustav makromolekularni chemie AV CR, v.v.i., priority 2016, dated 2017).
Like-named read-outs stand apart in the source and are kept apart here.

Columns and labels:
[1] = tested on: murine T-cell lymphoma EL4; details: 1 x 7.5 mg DOX eq./kg i.v.
Description: The in vivo antitumour effect of micellar diblock polymer conjugate of Example 28 carrying doxorubicin (DOX-DB) was studied on a model of murine T-cell lymphoma EL4 in the C57BL/6 inbred strains of mice. The conjugate was administered to mice intravenously (i.v.) in a single dose equivalent to 7.5 mg of doxorubicin/kg. The drug was injected 8 days after subcutaneous administration of 1 x 10^5 EL4 tumour cells, at a time when tumours are developed and the tumour bed size is about 6-8 mm in diameter. […] Further, the free doxorubicin (DOX) was used for treatment, injected at a total dose of 10 mg/kg, which, due to the different pharmacokinetics of a low molecular weight drug and the associated danger of high systemic toxicity, was injected in two partial intravenous doses on the 8th and 12th day after transplantation of tumour cells (each dose of 5 mg of doxorubicin).
Days mean the death of animals after administration of tumour cells (1 x 10^5 cells EL4 s.c. on day 0), LTS ("long term survivor") means long-term surviving mice without evidence of tumour (at least until day 70 after administration of tumour cells). The last line contains information about the median survival in groups.

[2] = not given; remark: listed apart in the source

## [raft-poly(HPMA-co-MA-AH-NHN=DOX)]-GFLG-PPO-NH2 [DB-DOX]
[1]
  signs of systemic toxicity (reduced body weight, bristly hair, hunched position, eating disorders): did not induce in the treated mice any observable signs of systemic toxicity
Phosphate buffer pH 5.0, 37°C, after 9 hours of incubation
  amount of released DOX: more than 70%
Phosphate buffer pH 7.4, 37°C, in 24 hours
  amount of released DOX: up to 9%
[2]; EL4 T-cell lymphoma, 10 mg Dox/kg vs free drug 2 x 5 mg DOX/kg
  accumulation in the tumour tissue relative to free drug at the maximum tolerated dose: more than 20 fold
[2]; EL4 T-cell lymphoma, dosage 10 mg Dox/kg
  amount of drug in the tumour tissue relative to the linear PHPMA conjugate (PHPMA-DOX): 4 times
[2]; mice with EL4 T-cell lymphoma, 10 mg Dox/kg
  time of circulation in blood compared with PHPMA-DOX and free DOX: circulates in the bloodstream considerably longer
